# scFv variants of Ab-14 (heavy chain) against a SARS-CoV-2 spike peptide

The measurements come from Engelhart et al. 2022 (doi:10.1038/s41597-022-01779-4) through the FLAb antibody collection.

The target is the same throughout: PDVDLGDISGINAS, from the HR2 region of SARS-CoV-2 spike.

Each scFv is VH, the linker GGGGSGGGGSGGGGS, VL, as in the parent Ab-14, and differs from it in the CDRs of the heavy chain only.
VH: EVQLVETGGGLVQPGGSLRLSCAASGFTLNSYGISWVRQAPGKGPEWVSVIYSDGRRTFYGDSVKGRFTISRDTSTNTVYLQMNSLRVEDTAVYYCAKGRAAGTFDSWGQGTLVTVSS
VL: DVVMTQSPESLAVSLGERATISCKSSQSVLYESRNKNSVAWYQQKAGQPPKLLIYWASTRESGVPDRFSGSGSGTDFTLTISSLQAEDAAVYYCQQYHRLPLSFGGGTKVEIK

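The library (AAYL49) carries one to three amino acid substitutions per variant, with no insertions or deletions. Affinity was read by AlphaSeq, a pooled yeast mating assay with surface-displayed partners. After mating in shaken culture at 30 °C for 16 h, diploids were selected and their barcode pairs sequenced. The ratio of observed to expected reads was calibrated, replicate by replicate, on BCL2-family standards whose Kd was known from biolayer interferometry. Each pool was mated in three replicate cultures.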

Each variant is given by its three heavy chain CDRs, as the data file delimits them; those of the parent are GFTLNSYGIS, VIYSDGRRTFYGDSVK, GRAAGTFDS.
Every variant below is changed at S63 of the VH (sequential numbering).
Each Kd is an estimate from the mating assay, the geometric mean of the replicates in which the pair was seen; lower is stronger.
A pair that was not seen in any replicate is written "nd"; this usually means weak binding, but a binder can also be missed.
Parent in this assay: reference entry 4.4 nM, copy in this library 13 µM (one replicate of three).

The variant GFRLNSYGIS | VIYSDGRRTFYGDYVK | GRAQGTFDS showed nd (0 of 3 replicates).
The variant GFTLNSYGIS | VIYSDGRRTFYGDKVK | MRAAGTKDS showed 500 µM (1 of 3 replicates).
The variant GFTLNSSGIS | VIYSDGRRTFYGDPVK | GRAAGTFDS showed nd (0 of 3 replicates).
The variant GFTLNSYGIS | VIYTDGRRTFYGDRVC | GRAAGTFDS showed nd (0 of 3 replicates).
The variant GFTLNSYGIS | VIYSDGRRTFYGIIVK | GRAAGTFSS showed nd (0 of 3 replicates).
The variant GFTLNSGGIS | VIYSDGRRWFYGDMVK | GRAAGTFDS showed nd (0 of 3 replicates).
The variant GFYLNSYGIS | FIYSDGRRTFYGDFVK | GRAAGTFDS showed 20 µM (1 of 3 replicates).
The variant GHTLNSYGIS | VIYSDGRRTFYGDTVK | GRAAGTFCS showed nd (0 of 3 replicates).
The variant GFTLNSYGIS | PIYSDGRRTFYGDQVK | GRAAGTFDS showed nd (0 of 3 replicates).
The variant GFTLFSYGIS | VIYSDGRRTFYHDWVK | GRAAGTFDS showed nd (0 of 3 replicates).
The variant GFELNSYGIS | VIYSDGRRTFYGDWVK | GRAAGTQDS showed nd (0 of 3 replicates).
The variant GFTLNSYGSS | VIYSDGRRTWYGDVVK | GRAAGTFDS showed nd (0 of 3 replicates).
The variant GFTLNSYGIA | VIYSDGRRTFYGDDVK | GRAAGTEDS showed 58 µM (1 of 3 replicates).
The variant PFTLNSYGIS | VIYSDPRRTFYGDFVK | GRAAGTFDS showed 770 µM (1 of 3 replicates).
The variant GFTLNSRGIS | VIYSDGRRTFYGDGVK | GRAAGTYDS showed 20 µM (1 of 3 replicates).
The variant GFTLNSYGIS | VIYSDGVRTFYGDIMK | GRAAGTFDS showed 310 nM (1 of 3 replicates).
The variant GFTLNSYHIS | VIYWDGRRTFYGDFVK | GRAAGTFDS showed 1.2 mM (1 of 3 replicates).
The variant LFTLNSYGIS | VIYSDGRRTFYGDVVK | GRKAGTFDS showed nd (0 of 3 replicates).
The variant GFTLNSYGIA | VIYSDGRRTFYGDKVK | GRAAGTFDS showed nd (0 of 3 replicates).
The variant GFTGNSYGIS | VILSDGRRTFYGDNVK | GRAAGTFDS showed nd (0 of 3 replicates).
The variant GFTLNSYGIS | VIYSDGRRTVYGDTVK | GRAAGTFDS showed 20 nM (3 of 3 replicates).
The variant GFTLNSYGIS | VIYSRGRRTFYGEGVK | GRAAGTFDS showed 540 µM (1 of 3 replicates).
The variant GHTLQSYGIS | VIYSDGRRTFYGDAVK | GRAAGTFDS showed 88 nM (3 of 3 replicates).
The variant GFTLNSYGIS | VIYSDGRREFHGDHVK | GRAAGTFDS showed nd (0 of 3 replicates).
The variant GFTLNSYGIS | VIYRDGRRTFYGDHVK | GRAAKTFDS showed 23 µM (1 of 3 replicates).
The variant GFTLNSSGIS | VIHSDGRRTFYGDHVK | GRAAGTFDS showed 7.0 µM (1 of 3 replicates).
The variant GFTRNSYGIS | VIYSDGRRTFYGEIVK | GRAAGTFDS showed nd (0 of 3 replicates).
The variant GFTVNSYGIS | VIYSRGRRTFYGDDVK | GRAAGTFDS showed nd (0 of 3 replicates).
The variant GFTLNSYGIS | VIYSHGRRTFYGDHVK | LRAAGTFDS showed nd (0 of 3 replicates).
The variant GFTLNQYGIS | VIYSDGRRTFYADEVK | GRAAGTFDS showed nd (0 of 3 replicates).
The variant GFTLHSYGIS | NIYSDGRRTFYGDVVK | GRAAGTFDS showed 2.1 µM (1 of 3 replicates).
The variant GFTLNSYGIS | VIYSHGRRTFYVDKVK | GRAAGTFDS showed 7.9 µM (1 of 3 replicates).
The variant GFTLNSYGIS | VIYSDARRTFYRDDVK | GRAAGTFDS showed 53 µM (1 of 3 replicates).
The variant GFCLNSYGIS | VIYSDERRTFYGDRVK | GRAAGTFDS showed 18 µM (1 of 3 replicates).
The variant GFTLNSYGIS | SIYSDGRRTFYGDMVK | GRNAGTFDS showed nd (0 of 3 replicates).
The variant GITLNSYGIS | VIYSDGRETFYGDGVK | GRAAGTFDS showed nd (0 of 3 replicates).
The variant GFTLNSYGIS | VIYSDGRRTFYGDHAK | GRALGTFDS showed 1.3 µM (3 of 3 replicates).
The variant GFTLNSYGCS | VIYSDGRRTFYKDMVK | GRAAGTFDS showed 11 µM (2 of 3 replicates).
The variant GFTLNSYGIS | VIYSDGRRTIYGDGKK | GRAAGTFDS showed 21 µM (1 of 3 replicates).
The variant GFTLNSYGIS | VQYSDGRRTFYGLYVK | GRAAGTFDS showed 240 µM (1 of 3 replicates).
The variant GFTLNSYGIS | VIYSDGRRTFYGFHVK | GRAAGTQDS showed 370 µM (1 of 3 replicates).
The variant GFTLNSYGIS | VIYDDGRRTFYGDRVK | GTAAGTFDS showed 15 µM (1 of 3 replicates).

The closing 4 entries, repeated:

{"CDR-H1": "GFTLNSYGIS", "CDR-H2": "VIYSDGRRTIYGDGKK", "CDR-H3": "GRAAGTFDS", "Kd (apparent)": "21 µM", "seen in": "1 of 3"}
{"CDR-H1": "GFTLNSYGIS", "CDR-H2": "VQYSDGRRTFYGLYVK", "CDR-H3": "GRAAGTFDS", "Kd (apparent)": "240 µM", "seen in": "1 of 3"}
{"CDR-H1": "GFTLNSYGIS", "CDR-H2": "VIYSDGRRTFYGFHVK", "CDR-H3": "GRAAGTQDS", "Kd (apparent)": "370 µM", "seen in": "1 of 3"}
{"CDR-H1": "GFTLNSYGIS", "CDR-H2": "VIYDDGRRTFYGDRVK", "CDR-H3": "GTAAGTFDS", "Kd (apparent)": "15 µM", "seen in": "1 of 3"}

As a blank, each scFv also met three strains without target: over library AAYL49, 15% of these pairings were detected, typically at 11 µM and seldom below 680 nM.